One compound from doi:10.1101/2025.09.22.677768 can be followed below.

Chains of the proteins cited; added tags and fusions are not shown.
UniProt O95271, whole entry: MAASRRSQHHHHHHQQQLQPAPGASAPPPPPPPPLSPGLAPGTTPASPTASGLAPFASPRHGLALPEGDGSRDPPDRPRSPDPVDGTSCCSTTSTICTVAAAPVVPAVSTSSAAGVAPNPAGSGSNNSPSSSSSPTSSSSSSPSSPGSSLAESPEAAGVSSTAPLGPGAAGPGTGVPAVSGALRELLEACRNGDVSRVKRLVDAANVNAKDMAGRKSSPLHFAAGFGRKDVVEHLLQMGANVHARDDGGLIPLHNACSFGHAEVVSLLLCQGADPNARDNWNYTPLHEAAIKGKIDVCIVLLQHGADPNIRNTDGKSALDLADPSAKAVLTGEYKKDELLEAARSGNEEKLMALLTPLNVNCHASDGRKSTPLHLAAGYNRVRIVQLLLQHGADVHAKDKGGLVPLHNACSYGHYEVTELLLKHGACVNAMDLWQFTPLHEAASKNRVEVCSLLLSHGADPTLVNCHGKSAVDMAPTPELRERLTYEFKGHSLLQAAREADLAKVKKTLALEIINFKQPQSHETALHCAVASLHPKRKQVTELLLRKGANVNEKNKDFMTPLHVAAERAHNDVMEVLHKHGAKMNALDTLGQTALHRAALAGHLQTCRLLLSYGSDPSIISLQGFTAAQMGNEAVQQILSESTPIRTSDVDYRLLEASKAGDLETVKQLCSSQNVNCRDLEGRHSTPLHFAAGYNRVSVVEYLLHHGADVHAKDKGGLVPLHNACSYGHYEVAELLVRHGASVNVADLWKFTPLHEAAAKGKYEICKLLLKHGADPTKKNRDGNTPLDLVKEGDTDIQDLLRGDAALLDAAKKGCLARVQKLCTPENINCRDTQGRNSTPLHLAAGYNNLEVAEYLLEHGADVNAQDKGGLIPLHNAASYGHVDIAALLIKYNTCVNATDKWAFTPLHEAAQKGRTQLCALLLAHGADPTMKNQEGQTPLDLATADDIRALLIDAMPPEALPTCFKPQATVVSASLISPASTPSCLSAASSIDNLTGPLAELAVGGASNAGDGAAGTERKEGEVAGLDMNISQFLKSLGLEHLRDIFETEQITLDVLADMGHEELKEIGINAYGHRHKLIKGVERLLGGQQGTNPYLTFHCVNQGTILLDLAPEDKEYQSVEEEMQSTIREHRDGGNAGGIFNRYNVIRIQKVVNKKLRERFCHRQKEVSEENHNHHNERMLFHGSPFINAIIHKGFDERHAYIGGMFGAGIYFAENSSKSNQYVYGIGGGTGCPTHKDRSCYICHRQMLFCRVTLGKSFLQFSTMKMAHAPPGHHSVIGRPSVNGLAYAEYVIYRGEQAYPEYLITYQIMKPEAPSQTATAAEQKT
UniProt Q96SW2, whole entry partner: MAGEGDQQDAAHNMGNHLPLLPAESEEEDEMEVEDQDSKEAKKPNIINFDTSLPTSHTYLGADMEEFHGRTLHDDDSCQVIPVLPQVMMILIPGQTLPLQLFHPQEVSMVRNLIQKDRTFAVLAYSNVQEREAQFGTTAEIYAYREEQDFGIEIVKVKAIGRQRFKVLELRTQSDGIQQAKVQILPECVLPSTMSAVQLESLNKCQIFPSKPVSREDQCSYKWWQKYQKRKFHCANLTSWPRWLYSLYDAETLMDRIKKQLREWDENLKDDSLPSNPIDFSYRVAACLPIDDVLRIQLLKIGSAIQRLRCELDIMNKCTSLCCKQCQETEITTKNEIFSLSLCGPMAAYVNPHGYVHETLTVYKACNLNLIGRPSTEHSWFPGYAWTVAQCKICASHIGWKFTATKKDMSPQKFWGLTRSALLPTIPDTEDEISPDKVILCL

Each structure is given as a SMILES string.

Usually DC50 stands for the concentration giving 50% degradation. Read a low DC50 as a more potent degrader.

The test deals with TNKS1 (Homo sapiens, UniProt O95271). Briefly: PROTAC degradation, NanoLuc assay in HAP1-TNKS1-NanoLuc cells; Western blot; blocked by IWR1, pomalidomide or MG132. On the technique in general: Immunoblotting shows a protein as a band on a membrane.

In turn, `O=C1CCC(N2C(=O)c3cccc(NCCOCCOCCOCCOCc4cn(Cc5ccnc6c(NC(=O)c7ccc(N8C(=O)C9C%10C=CC(C%10)C9C8=O)cc7)cccc56)nn4)c3C2=O)C(=O)N1` (stereo not shown) yielded a DC50 of 60 nM.
